# Like-named read-outs stand apart in the source and are kept apart here.
compound,measurement,setting,value
O=P(O)(O)C(CCc1cccnc1)NS(=O)(=O)c1cccs1 (centres unmarked),Log P,Table 2,0.78
O=P(O)(CNS(=O)(=O)c1cc2ccccc2s1)OCc1ccccc1,Log P,Table 1,-0.57
O=P(O)(O)CNS(=O)(=O)c1cc2ccccc2o1,Log P,"Table 1, tested form: Na salt",-0.68
O=P(O)(O)CNS(=O)(=O)c1cc2ccccc2s1,Log P,Table 1,-1.7
O=[N+]([O-])c1ccc(/C=C/C(NS(=O)(=O)c2cccs2)P(=O)(O)O)cc1 (centres unmarked),Log P,Table 2,0.58
